Measured values as given in patent publication EP4847498A1, “PRODRUG COMPOUND ACTIVATED BY FIBROBLAST ACTIVATION PROTEIN” (dated 2026).

Protein sequences, listed by entry. Tags and fused reporters are not part of them.
UniProt Q12884, whole entry: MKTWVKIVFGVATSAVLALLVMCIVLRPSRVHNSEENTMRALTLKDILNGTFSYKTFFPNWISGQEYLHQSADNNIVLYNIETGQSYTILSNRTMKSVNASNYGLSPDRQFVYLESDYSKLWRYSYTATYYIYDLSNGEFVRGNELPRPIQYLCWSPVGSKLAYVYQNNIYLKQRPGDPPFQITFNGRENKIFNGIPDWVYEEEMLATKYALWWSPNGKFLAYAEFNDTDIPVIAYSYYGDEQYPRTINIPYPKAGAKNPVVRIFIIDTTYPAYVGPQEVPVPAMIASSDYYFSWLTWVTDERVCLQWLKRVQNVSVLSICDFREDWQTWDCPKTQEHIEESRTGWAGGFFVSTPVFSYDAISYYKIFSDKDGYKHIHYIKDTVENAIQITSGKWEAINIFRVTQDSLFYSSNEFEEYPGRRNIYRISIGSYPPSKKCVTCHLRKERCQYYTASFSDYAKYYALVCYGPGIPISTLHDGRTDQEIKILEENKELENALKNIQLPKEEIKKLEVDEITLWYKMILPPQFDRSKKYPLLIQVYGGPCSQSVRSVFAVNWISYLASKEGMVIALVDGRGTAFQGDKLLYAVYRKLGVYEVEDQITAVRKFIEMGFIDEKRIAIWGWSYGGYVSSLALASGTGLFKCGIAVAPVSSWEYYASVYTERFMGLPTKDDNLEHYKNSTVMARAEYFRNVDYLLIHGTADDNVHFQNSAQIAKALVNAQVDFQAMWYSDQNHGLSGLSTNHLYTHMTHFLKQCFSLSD
UniProt P48147, whole entry: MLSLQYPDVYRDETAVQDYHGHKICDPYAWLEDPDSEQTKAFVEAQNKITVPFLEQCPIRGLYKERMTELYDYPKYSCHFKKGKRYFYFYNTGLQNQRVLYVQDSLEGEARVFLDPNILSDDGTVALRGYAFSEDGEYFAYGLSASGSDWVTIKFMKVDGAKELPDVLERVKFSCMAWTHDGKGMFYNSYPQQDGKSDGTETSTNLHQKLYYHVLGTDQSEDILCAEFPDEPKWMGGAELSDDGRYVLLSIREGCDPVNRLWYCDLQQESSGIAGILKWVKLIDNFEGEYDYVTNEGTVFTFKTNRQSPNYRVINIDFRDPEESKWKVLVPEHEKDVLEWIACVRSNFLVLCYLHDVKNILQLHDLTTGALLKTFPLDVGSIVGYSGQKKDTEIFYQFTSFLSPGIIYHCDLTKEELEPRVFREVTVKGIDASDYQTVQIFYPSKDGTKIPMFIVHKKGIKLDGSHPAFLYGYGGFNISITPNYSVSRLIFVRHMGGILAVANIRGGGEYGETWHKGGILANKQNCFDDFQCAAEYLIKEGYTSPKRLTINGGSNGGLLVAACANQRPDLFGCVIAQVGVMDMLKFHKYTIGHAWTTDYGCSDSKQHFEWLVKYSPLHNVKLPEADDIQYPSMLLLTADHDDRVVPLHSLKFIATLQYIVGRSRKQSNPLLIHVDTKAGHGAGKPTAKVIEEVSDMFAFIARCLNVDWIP
UniProt P27487, whole entry: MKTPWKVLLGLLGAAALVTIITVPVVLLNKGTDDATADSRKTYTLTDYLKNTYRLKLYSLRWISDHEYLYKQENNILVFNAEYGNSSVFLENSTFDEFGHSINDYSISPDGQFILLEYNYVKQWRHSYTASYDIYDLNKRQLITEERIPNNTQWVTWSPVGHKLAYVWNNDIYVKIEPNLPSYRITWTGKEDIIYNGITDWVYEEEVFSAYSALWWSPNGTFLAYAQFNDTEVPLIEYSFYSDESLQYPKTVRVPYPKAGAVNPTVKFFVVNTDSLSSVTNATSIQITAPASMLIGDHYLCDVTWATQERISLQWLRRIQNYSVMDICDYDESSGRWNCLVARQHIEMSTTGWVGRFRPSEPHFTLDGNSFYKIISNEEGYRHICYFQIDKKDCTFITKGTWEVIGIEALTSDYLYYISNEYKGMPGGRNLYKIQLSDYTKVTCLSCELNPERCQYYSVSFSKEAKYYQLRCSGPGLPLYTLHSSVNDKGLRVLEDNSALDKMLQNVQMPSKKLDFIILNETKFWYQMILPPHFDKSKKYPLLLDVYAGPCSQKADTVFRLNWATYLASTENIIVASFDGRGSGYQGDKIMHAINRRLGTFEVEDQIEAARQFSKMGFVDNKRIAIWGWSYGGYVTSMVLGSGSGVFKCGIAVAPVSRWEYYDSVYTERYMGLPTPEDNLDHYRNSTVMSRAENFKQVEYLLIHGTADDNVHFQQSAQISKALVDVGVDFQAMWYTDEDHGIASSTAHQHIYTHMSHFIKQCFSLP

Tests used:
FAP = FAP (Homo sapiens, UniProt Q12884); experiment: Cleavage of AMC-conjugated FAP substrate by FAP (fluorescence intensity over incubation time); details: 2.5 µM substrate, 2.5 µg/mL FAP, Tris-HCl buffer pH 7.4, 37°C
Experimental: (§1) To evaluate whether the FAP substrate according to the present invention is specifically recognized and cleaved only by FAP, the following experiment was conducted. 2.5 µM of an AMC-conjugated isonicotinoyl-D-Ala-Pro moiety represented by Formula 9 below as a substrate, 2.5 µg/mL of FAP, and <1% (v/v) of DMSO were added and incubated in buffer (0.01 M Tris-HCl, pH 7.4, 0.01 M MgCl2, 0.05% Tween-20, distilled water) at 37°C. As controls, PREP and DPP4, which are peptidases similar to FAP, were added. Fluorescence intensity as a function of incubation time was measured using a microplate instrument (SYNERGY H1, BioTek), and the results are shown in FIG. 3. [drawing 44]

PREP = PREP (Homo sapiens, UniProt P48147); experiment: Cleavage of AMC-conjugated FAP substrate by control peptidase PREP (fluorescence); details: 2.5 µM substrate, PREP as control, pH 7.4, 37°C
Experimental: as §1

DPP4 = DPP4 (Homo sapiens, UniProt P27487); experiment: Cleavage of AMC-conjugated FAP substrate by control peptidase DPP4 (fluorescence); details: 2.5 µM substrate, DPP4 as control, pH 7.4, 37°C
Experimental: as §1

U87MG cells = experiment: FAAP activation by intracellular FAP, confocal microscopy of intrinsic nintedanib fluorescence; details: normal group with FAP, 10 µM
Experimental: To evaluate whether FAAP is activated by FAP at the cellular level, a normal group with FAP and a group in which FAP was blocked using oncoFAP were treated with each of nintedanib and FAAP, and the uptake pattern was observed using a confocal microscope. Specifically, cells were seeded into confocal dishes at a density of 2 x 10^5 cells/mL per well, incubated for 24 hours, and then subjected to drug treatment. For drug treatment, the normal group with FAP was treated with 2 µL (10 µM) of each of FAAP and nintedanib. The group in which FAP was blocked was first treated with 10 µL (1 mM) of oncoFAP, shaken from side to side, incubated for 30 minutes, and then treated with 2 µL (10 µM) of FAAP. After drug treatment, shaking was performed using a shaker at 165 rpm for 5 minutes. After incubation in an incubator for 15 minutes, 2 hours, 6 hours, and 10 hours, the cells were washed twice with warm DPBS. The cells were incubated with 1 ml of warm 4% PFA for 15 minutes, washed twice, then fixed by filling with DPBS to keep them from drying out, and then confocal images were taken. Nintedanib drug images were obtained using a Hoechst 33258 filter.

Compound | cleavage of the substrate by FAP, fluorescence detected (FAP) | cleavage of the substrate by PREP (PREP) | cleavage of the substrate by DPP4 (DPP4) | time after treatment at which fluorescence started (U87MG cells) [min]
Cc1cc(=O)oc2cc(NC(=O)[C@@H]3CCCN3C(=O)[C@@H](C)NC(=O)c3ccncc3)ccc12 | specifically cleaved only by the FAP enzyme | not cleaved | not cleaved | –
COC(=O)c1ccc2c(c1)NC(=O)/C2=C(\Nc1ccc(N(C)C(=O)CN2CCN(C)CC2)cc1)c1ccccc1 | – | – | – | 15
